In general, inhibition refers to the change of the read-out against control, counted positive when it falls.

The list shows a part of the results, in another mix than the full data. Active and inactive are the calls of the source. No stated cut-off is given here; in the data, active means inhibition above about 19%; inactive means the rest.

The source of these data is PubChem BioAssay AID651800 (The Scripps Research Institute Molecular Screening Center, 2012).

The assay deals with T-cell receptor (TCR). The assay is described as follows: small molecules blocking TCR binding to CD3 – biochemical, fluorescence, TAMRA-labeled TCR probe, primary screen (AID 651800).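 Further: recombinant mutant TCR 2C K166C tagged with TAMRA read by polarization; 0% = receptor in buffer alone and 100% = receptor with positive control.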 To be noted: at 9.4 µM, active compounds read high.
With `CC(C)(C)n1nnnc1C(c1ccccc1OC(F)(F)F)N1CCC(n2c(=O)[nH]c3ccccc32)CC1` (stereo not drawn), the inhibition is inactive: 4.56%. Turning to `O=C(NCC1(N2CCCCC2)CCCCC1)c1ccc(OC(F)F)cc1`, the inhibition is inactive: -7.26%. With `O=C(NCC1(N2CCCCC2)CCCCC1)c1cccc([N+](=O)[O-])c1` the figure was inactive: 2.27%; with `CSc1ccc(C(=O)NCC2(N3CCOCC3)CCCCC2)cc1`, inactive: -12.6%; with `CCN1CCC(Nc2ccc(Cl)cc2)CC1`, inactive: -1.32%. On to `O=c1[nH]c2ccccc2n1C1CCN(C(c2ccccc2OC(F)(F)F)c2nnnn2C2CCCC2)CC1` (stereo not drawn), for which the inhibition was inactive: -0.03%. In the case of `N#CC1(Nc2ccccc2)CCN(CCc2ccccc2)CC1` it was inactive: 4.04%; in that of `O=C(NCC1(N2CCCCC2)CCCCC1)c1cccc(C(F)(F)F)c1`, inactive: 3.94%. As for `CC(C)c1ccc(C(=O)NCC2(N3CCOCC3)CCCCC2)cc1`, the inhibition is inactive: -7.28%. For `COc1ccc(NC2CCN(C(=O)OC(C)(C)C)CC2)cc1`, the inhibition is inactive: -1.98%. As for `CN1CCN(CCOC(=O)C(O)(c2ccccc2)c2ccccc2)CC1`, the inhibition was inactive: 9.04%.

With `CCCCn1nnnc1C(c1cccc2ccccc12)N1CCC(n2c(=O)[nH]c3ccccc32)CC1` (stereo not drawn), the inhibition was inactive: 6.93%. `O=C(NCC1(N2CCOCC2)CCCCC1)c1cc(=O)[nH]c2ccccc12`: the inhibition is inactive: 0.36%. On to `COc1cc(C(=O)NCC2(N3CCCCC3)CCCCC2)ccc1OC(F)F`, for which the inhibition is inactive: 6.1%. On to `COc1ccc(CN(CCCl)CCCl)cc1Cl`, for which the inhibition was inactive: 1.39%.

On to `CN(C)c1cccc(C(=O)NCC2(N3CCCCC3)CCCCC2)c1`, for which the inhibition was inactive: 5.16%. On to `CC(C)c1ccc(NC2CCN(C(=O)OC(C)(C)C)CC2)cc1`, for which the inhibition is inactive: 11.2%.

With `CCCCn1nnnc1C(c1ccnc2ccccc12)N1CCC(n2c(=O)[nH]c3ccccc32)CC1` (stereo not drawn), the inhibition is inactive: 0.42%. Regarding `COc1cc(OC)c(C(=O)NCC2(N(C)C)CCCCC2)cc1OC`, the inhibition is inactive: -2.2%. Take `CCC(c1nnnn1C(C)(C)C)N1CCC(n2c(=O)[nH]c3ccccc32)CC1` (stereo not drawn): the inhibition was inactive: -3.48%. Turning to `O=C(NCC1(N2CCOCC2)CCCCC1)c1cc(F)c(F)cc1Cl`, the inhibition is inactive: 1.38%. In the case of `CN1CCC(Nc2cccc(F)c2)CC1`, the inhibition was inactive: 4.3%. As to `O=C(NCC1(N2CCCCC2)CCCCC1)c1cncc(Br)c1`, the inhibition was inactive: 2.73%. `Cc1ccc(C(=O)NCC2(N(C)C)CCCCC2)o1`: the inhibition was inactive: -4.05%. With `CCCOc1ccc(C(=O)NCC2(N(C)C)CCCCC2)cc1OC`, the inhibition was inactive: 4.63%. For the compound `COc1ccc(C(c2nnnn2C2CCCC2)N2CCC(n3c(=O)[nH]c4ccccc43)CC2)cc1` (stereo not drawn), the inhibition was inactive: -3.71%. For `O=C(NCC1(N2CCCCC2)CCCCC1)c1ccc(=O)[nH]c1`, the inhibition was inactive: 1.38%. As to `O=C(NCC1(N2CCCCC2)CCCCC1)c1cccs1`, the inhibition was inactive: -0.97%. In the case of `CCCCn1nnnc1C(CC)N1CCC(n2c(=O)[nH]c3ccccc32)CC1` (stereo not drawn), the inhibition was inactive: -5.83%.

For the compound `CCCCn1nnnc1C(c1cccs1)N1CCC(n2c(=O)[nH]c3ccccc32)CC1` (stereo not drawn), the inhibition was inactive: 4.86%.

`COc1ccc(C(=O)NCC2(N3CCCCC3)CCCCC2)cc1`: the inhibition was inactive: -1.31%. In the case of `CC(C)(C)OC(=O)N1CCC(N(C(=O)c2ccccc2)c2ccc(F)cc2)CC1` it was inactive: 4.05%; in that of `COc1ccc(C(=O)NCC2(N3CCCCC3)CCCCC2)c(OC)c1OC`, inactive: -7.12%. In the case of `CCC(c1nnnn1C1CCCC1)N1CCC(n2c(=O)[nH]c3ccccc32)CC1` (stereo not drawn), the inhibition is inactive: -8.15%.

For `CSc1ccccc1C(=O)NCC1(N2CCCCC2)CCCCC1`, the inhibition was inactive: 6.73%. Consider `Cc1cccc(NC2(C#N)CCN(Cc3ccccc3)CC2)c1`, for which the inhibition is inactive: -6.86%. In the case of `O=C(NCC1(N2CCOCC2)CCCCC1)c1cc2ccccc2o1` it was inactive: 4.13%; in that of `O=C(NCC1(N2CCCCC2)CCCCC1)c1ccc(Cl)nc1`, inactive: -14.7%. As for `O=c1[nH]c2ccccc2n1C1CCN(C(c2ccccc2OC(F)(F)F)c2nnnn2C2CCCCC2)CC1` (stereo not drawn), the inhibition was inactive: -3.27%. Consider `Cc1cc(C)cc(N(C(=O)c2ccccc2)C2CCN(C(=O)OC(C)(C)C)CC2)c1`, for which the inhibition is inactive: 3.56%. As to `CCOC(=O)N1CCC(Nc2ccc(OC)cc2)CC1`, the inhibition is inactive: 9.08%. For the compound `CCCCn1nnnc1C(c1ccc(OC)cc1)N1CCC(n2c(=O)[nH]c3ccccc32)CC1` (stereo not drawn), the inhibition was inactive: 2.18%. With `O=C(NCC1(N2CCCCC2)CCCCC1)c1ccc(Cl)s1`, the inhibition was inactive: -1.08%.

On to `N#CC1(Nc2ccccc2)CCN(Cc2ccccc2)CC1`, for which the inhibition is inactive: 6.14%. In the case of `O=c1[nH]c2ccccc2n1C1CCN(C(c2cc3ccccc3o2)c2nnnn2C2CCCCC2)CC1` (stereo not drawn) it was inactive: -3.21%; in that of `O=C(OC1CN2CCC1CC2)C1c2ccccc2Oc2ccccc21` (stereo not drawn), inactive: 5.33%; in that of `COc1ccc(Cl)cc1C(=O)NCC1(N2CCOCC2)CCCCC1`, inactive: 3.16%.

On to `CCOc1ccc(C)cc1CN(CCCl)CCCl`, for which the inhibition is inactive: -3.79%. On to `CC(C)(C)n1nnnc1C(c1ccccc1)N1CCC(n2c(=O)[nH]c3ccccc32)CC1` (stereo not drawn), for which the inhibition was inactive: -2.6%. In the case of `O=C1CCN(Cc2ccccc2)CC1`, the inhibition is inactive: -0.05%.

`CCCCOc1ccc(C(=O)NCC2(N3CCOCC3)CCCCC2)cc1`: the inhibition was inactive: -2.72%. Turning to `CCCCn1nnnc1C(c1cc2ccccc2o1)N1CCC(n2c(=O)[nH]c3ccccc32)CC1` (stereo not drawn), the inhibition is inactive: -1.34%. In the case of `O=P1(N(CCCl)CCCl)SCCCS1` it was inactive: 1.19%; in that of `O=C(NCC1(N2CCCCC2)CCCCC1)c1ccc(F)cc1`, inactive: 8.49%; in that of `CCOC(=O)N1CCC(Nc2ccc(F)cc2)CC1`, inactive: -7.32%.

In the case of `COc1ccc(NC2CCN(CCc3ccccc3)CC2)c(OC)c1`, the inhibition was inactive: 0.04%. `O=c1[nH]c2ccccc2n1C1CCN(C(c2ccccc2)c2nnnn2C2CCCCC2)CC1` (stereo not drawn): the inhibition was inactive: -7.78%. For the compound `O=c1[nH]c2ccccc2n1C1CCN(C(c2cccc3ccccc23)c2nnnn2C2CCCC2)CC1` (stereo not drawn), the inhibition is inactive: -1.21%. Regarding `CCOC(=O)N1CCC(Nc2cccc(C)c2)CC1`, the inhibition is inactive: -3.97%.

As to `COc1cc(C(=O)NCC2(N(C)C)CCCCC2)ccc1OC(F)F`, the inhibition is inactive: 3.07%. `COc1cc(OC)cc(C(=O)NCC2(N3CCCCC3)CCCCC2)c1`: the inhibition is inactive: 0.08%. In the case of `O=c1[nH]c2ccccc2n1C1CCN(C(c2ccnc3ccccc23)c2nnnn2C2CCCCC2)CC1` (stereo not drawn) it was inactive: 6.28%. Take `COc1cccc(C(c2nnnn2C2CCCCC2)N2CCC(n3c(=O)[nH]c4ccccc43)CC2)c1OC` (stereo not drawn): the inhibition was inactive: -1.5%. `CC(=O)N(c1ccccc1)C1CCNCC1`: the inhibition is inactive: -0.83%. Consider `CCC(c1nnnn1C1CCCCC1)N1CCC(n2c(=O)[nH]c3ccccc32)CC1` (stereo not drawn), for which the inhibition is inactive: -0.52%. As to `Cc1ccc(NC2(C#N)CCN(Cc3ccccc3)CC2)cc1`, the inhibition is inactive: -7.6%. With `Cc1ccc(C(=O)NCC2(N3CCCCC3)CCCCC2)o1`, the inhibition was inactive: -3.55%. In the case of `Fc1ccccc1NC1CCN(Cc2ccccc2)CC1` it was inactive: 6.95%; in that of `Cc1ccccc1NC1(C#N)CCN(Cc2ccccc2)CC1`, inactive: 1.67%.

In the case of `CCN1CCC(Nc2cccc(F)c2)CC1`, the inhibition was inactive: 7.43%. Take `COc1ccc(C(c2nnnn2C2CCCCC2)N2CCC(n3c(=O)[nH]c4ccccc43)CC2)cc1` (stereo not drawn): the inhibition was inactive: 2.09%. With `CC(C)(C)n1nnnc1C(c1ccnc2ccccc12)N1CCC(n2c(=O)[nH]c3ccccc32)CC1` (stereo not drawn), the inhibition was inactive: 4.05%. Consider `O=C(NCC1(N2CCCCC2)CCCCC1)c1ccco1`, for which the inhibition is inactive: -5.61%. As for `CN(C)c1ccc(C(=O)NCC2(N3CCCCC3)CCCCC2)cc1`, the inhibition was inactive: 9.98%. With `Cn1c(=O)[nH]cc(N(CCCl)CCCl)c1=O`, the inhibition was inactive: 0.13%.

For `CCOc1ncccc1C(=O)NCC1(N2CCOCC2)CCCCC1`, the inhibition is inactive: -5.44%. As to `CN1CCC(Nc2ccc(F)c(Cl)c2)CC1`, the inhibition was inactive: -4.84%. Take `O=c1[nH]c2ccccc2n1C1CCN(C(c2cc3ccccc3o2)c2nnnn2C2CCCC2)CC1` (stereo not drawn): the inhibition is inactive: -3.65%. Take `CCCOc1ccc(C(=O)NCC2(N(C)C)CCCCC2)cc1`: the inhibition was inactive: -14.6%. With `CC(C)(C)OC(=O)N1CCC(Nc2ccccc2)CC1` the figure was inactive: -1.97%; with `NN(c1ccccc1)C1CCN(CCc2ccccc2)CC1`, inactive: 1.02%.

Regarding `O=C(O)C1(Nc2ccccc2)CCN(Cc2ccccc2)CC1`, the inhibition is inactive: 3.94%.

Take `CCC(CO)(C(=O)OC1CN2CCC1CC2)c1ccccc1` (stereo not drawn): the inhibition was inactive: -0.93%.

Take `COc1cccc(C(=O)N(c2cc(C)cc(C)c2)C2CCN(C(=O)OC(C)(C)C)CC2)c1`: the inhibition was inactive: 8.51%. Regarding `COc1cc(OC)cc(C(=O)NCC2(N3CCOCC3)CCCCC2)c1`, the inhibition is inactive: 6.59%. In the case of `COc1cccc(C(c2nnnn2C2CCCC2)N2CCC(n3c(=O)[nH]c4ccccc43)CC2)c1OC` (stereo not drawn), the inhibition was inactive: 1.45%. In the case of `CN1CCC(Nc2ccc(Cl)cc2)CC1` it was inactive: -5.17%; in that of `O=C(NCC1(N2CCOCC2)CCCCC1)c1cc(Br)ccc1Cl`, inactive: -2.29%; in that of `CCCCn1nnnc1C(c1ccccc1)N1CCC(n2c(=O)[nH]c3ccccc32)CC1` (stereo not drawn), inactive: 2.43%. As to `COc1cc(C(=O)NCC2(N3CCOCC3)CCCCC2)cc(OC)c1C`, the inhibition is inactive: -4.47%. With `COc1ccc(C(=O)NCC2(N3CCOCC3)CCCCC2)cc1OC` the figure was inactive: 0.16%; with `O=c1[nH]c2ccccc2n1C1CCN(C(c2ccnc3ccccc23)c2nnnn2C2CCCC2)CC1` (stereo not drawn), inactive: -9.24%; with `O=c1[nH]c2ccccc2n1C1CCN(C(c2cccs2)c2nnnn2C2CCCCC2)CC1` (stereo not drawn), inactive: -9.89%. With `N/C(=N\O)c1c(N)no[n+]1[O-]`, the inhibition was inactive: 4.72%. With `CCOC(=O)N1CCC(Nc2ccc(C)cc2)CC1`, the inhibition is inactive: -6.61%. Take `COc1cccc(C(c2nnnn2C(C)(C)C)N2CCC(n3c(=O)[nH]c4ccccc43)CC2)c1OC` (stereo not drawn): the inhibition was inactive: 5.11%. For `CCCCn1nnnc1C(c1cccc(OC)c1OC)N1CCC(n2c(=O)[nH]c3ccccc32)CC1` (stereo not drawn), the inhibition is inactive: -5.75%. With `O=C(OC1CN2CCC1CC2)C1c2ccccc2C=Cc2ccccc21` (stereo not drawn) the figure was inactive: 0.6%; with `O=c1[nH]c2ccccc2n1C1CCN(C(c2cccs2)c2nnnn2C2CCCC2)CC1` (stereo not drawn), inactive: -2.63%.

As for `CC(C)(C)OC(=O)N1CCC(N(C(=O)c2ccccc2)c2ccc(Cl)cc2)CC1`, the inhibition is inactive: 5.16%. `N#Cc1ccc(C(=O)NCC2(N3CCCCC3)CCCCC2)cc1`: the inhibition was inactive: 0.54%. As to `C/C(N)=N\P(=O)(Oc1ccccc1)Oc1ccccc1`, the inhibition was inactive: 9.18%.

For `c1ccc(CN2CCC(Nc3ccccc3)CC2)cc1`, the inhibition is inactive: -7.94%.

With `Cc1cc(N(CCCl)CCCl)ccc1C=O`, the inhibition is inactive: 11.2%. On to `O=c1[nH]c2ccccc2n1C1CCN(C(c2ccccc2)c2nnnn2C2CCCC2)CC1` (stereo not drawn), for which the inhibition is inactive: 1.4%. `CCCN1CCC(Nc2cc(OC)cc(OC)c2)CC1`: the inhibition is inactive: -6.97%. On to `CN(C)C1(CNC(=O)c2cccc(C#N)c2)CCCCC1`, for which the inhibition was inactive: 3.27%.

With `CC(C)(C)n1nnnc1C(c1cccc2ccccc12)N1CCC(n2c(=O)[nH]c3ccccc32)CC1` (stereo not drawn), the inhibition is inactive: -3.39%.
